# Measurements reported in US7906156B2, “CB2 receptors blocks accumulation of human hepatic myofibroblasts: a novel antifibrogenic pathway in the liver” (priority 2003, dated 2011).
# Tested on: human hepatic myofibroblasts
# Assay: Cell viability (MTS assay) / cytotoxicity of serum-deprived hepatic myofibroblasts
# Assay type: cell-based
# Details: pretreatment before THC
# Procedure: Cell viability. […] CellTiter 96 AQueous One Solution reagent was added to each well and absorbance was recorded at 490 nm.
substance,measurement,value
"N-[1S)-endo-1,3,3,-trimethyl bicyclo[2.2.1]heptan-2-yl]-5-(choloro-3-methylphenyl)-1-(4-methyl-benzyl)-pyrazole-3-carboxamide [SR 144528]",effect on cytotoxic effect / cell death triggered by THC,blunted
